Laboratory results taken from patent US20240360179A1, “STAPLED PEPTIDES AND METHODS THEREOF” (FOG PHARMACEUTICALS, INC., priority 2021, published 2024).

Sequences of proteins named here, by UniProt entry; tags and fusion partners are left off.
UniProt P35222, whole entry: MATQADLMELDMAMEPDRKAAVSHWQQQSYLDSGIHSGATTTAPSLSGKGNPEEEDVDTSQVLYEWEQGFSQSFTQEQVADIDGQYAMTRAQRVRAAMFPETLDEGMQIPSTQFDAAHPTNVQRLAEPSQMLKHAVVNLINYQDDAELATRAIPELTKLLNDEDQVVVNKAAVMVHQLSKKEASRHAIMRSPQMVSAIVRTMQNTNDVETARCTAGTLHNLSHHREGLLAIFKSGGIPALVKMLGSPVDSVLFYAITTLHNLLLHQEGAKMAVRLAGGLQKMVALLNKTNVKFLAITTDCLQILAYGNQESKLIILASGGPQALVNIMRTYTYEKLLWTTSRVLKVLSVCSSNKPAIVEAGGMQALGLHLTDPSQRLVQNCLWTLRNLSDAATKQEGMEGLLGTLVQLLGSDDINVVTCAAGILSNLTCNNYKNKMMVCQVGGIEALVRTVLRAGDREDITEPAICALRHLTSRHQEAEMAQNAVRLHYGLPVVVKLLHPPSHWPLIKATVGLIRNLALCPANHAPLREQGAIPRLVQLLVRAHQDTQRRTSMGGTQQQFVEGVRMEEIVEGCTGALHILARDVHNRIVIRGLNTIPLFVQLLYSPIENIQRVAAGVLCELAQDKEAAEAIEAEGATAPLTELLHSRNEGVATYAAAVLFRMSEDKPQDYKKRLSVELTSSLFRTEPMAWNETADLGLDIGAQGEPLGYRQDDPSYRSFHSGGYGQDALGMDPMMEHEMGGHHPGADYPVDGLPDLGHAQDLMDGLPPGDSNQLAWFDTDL

How the values were obtained:
[1] = target: beta-catenin/TCF4 interaction (Homo sapiens, UniProt P35222); experiment: cell-based; parameters: host or cells: HEK293; conditions: NanoBRET Abs IC50 (uM)
[2] = target: T1, full-length B-Catenin (Uniprot ID P35222) (Homo sapiens, UniProt P35222); experiment: biochemical; type: binding; conditions: beta-Catenin FP IC50 (nM), competition fluorescence polarization
T1 construct: 10 nM full-length B-Catenin (Uniprot ID P35222)

SMILES	IC50 [1] [µM]	IC50 [2] [nM]
CC(=O)N1CCC[C@]12CC=CCCCC1(CCCC=CCCCOC(=O)N3CC[C@@]4(C3)NC(=O)[C@H](CCCCNC(=O)CC[C@@H](C(=O)N[C@@H](C)C(N)=O)NC(=O)[C@H](Cc3csc5ccccc35)NC(=O)[C@H](Cc3ccccc3C(F)(F)F)NC4=O)NC(=O)[C@H](Cc3ccccc3)NC(=O)[C@H](C)NC(=O)C(C)(C)NC(=O)[C@H](CCc3ccc(O)cc3)NC(=O)[C@H](CC(=O)O)NC1=O)NC(=O)[C@H](CC(C)(C)C)NC(=O)[C@H](CC(=O)O)NC2=O (relative stereo) [I-217, Ac-PL3-Asp-Npg-B5-Asp-hTyr-Aib-Ala-Phe-Lys*3-PyrS2-2F3MeF-BztA-GlnR*3-Ala-NH2]	> 10	> 1000
CC(=O)N1CCC[C@]12CC=CCCCC1(CCCC=CCCCOC(=O)N3CC[C@@]4(C3)NC(=O)[C@H](CCCCNC(=O)CC[C@@H](C(=O)N[C@@H](C)C(N)=O)NC(=O)[C@H](Cc3csc5ccccc35)NC(=O)[C@H](Cc3ccccc3C(F)(F)F)NC4=O)NC(=O)[C@H](Cc3ccccc3)NC(=O)[C@H](C)NC(=O)C(C)(C)NC(=O)[C@H](Cc3cccc(C(N)=O)c3)NC(=O)[C@H](CC(=O)O)NC1=O)NC(=O)[C@H](CC(C)(C)C)NC(=O)[C@H](CC(=O)O)NC2=O (relative stereo) [I-218, Ac-PL3-Asp-Npg-B5-Asp-3cbmf-Aib-Ala-Phe-Lys*3-PyrS2-2F3MeF-BztA-GlnR*3-Ala-NH2]	3 to 10	50 to 200
CC(=O)N1CCC[C@]12CC=CCCCC1(CCCC=CCCCOC(=O)N3CC[C@@]4(C3)NC(=O)[C@H](CCCCNC(=O)CC[C@@H](C(=O)N[C@@H](C)C(N)=O)NC(=O)[C@H](Cc3csc5ccccc35)NC(=O)[C@H](Cc3ccccc3C(F)(F)F)NC4=O)NC(=O)[C@H](Cc3ccccc3)NC(=O)[C@H](C)NC(=O)C(C)(C)NC(=O)[C@H](Cc3ccccc3)NC(=O)[C@H](CC(=O)O)NC1=O)NC(=O)[C@H](CC(C)(C)C)NC(=O)[C@H](CC(=O)O)NC2=O (relative stereo) [I-220, Ac-PL3-Asp-Npg-B5-Asp-Phe-Aib-Ala-Phe-Lys*3-PyrS2-2F3MeF-BztA-GlnR*3-Ala-NH2]	> 10	200 to 750
CC(=O)N1CCC[C@]12CC=CCCCC1(CCCC=CCCCOC(=O)N3CC[C@@]4(C3)NC(=O)[C@H](CCCCNC(=O)CC[C@@H](C(=O)N[C@@H](C)C(N)=O)NC(=O)[C@H](Cc3csc5ccccc35)NC(=O)[C@H](Cc3ccccc3C(F)(F)F)NC4=O)NC(=O)[C@H](Cc3ccccc3)NC(=O)[C@H](C)NC(=O)C(C)(C)NC(=O)[C@H](CCCCN)NC(=O)[C@H](CC(=O)O)NC1=O)NC(=O)[C@H](CC(C)(C)C)NC(=O)[C@H](CC(=O)O)NC2=O (relative stereo) [I-221, Ac-PL3-Asp-Npg-B5-Asp-Lys-Aib-Ala-Phe-Lys*3-PyrS2-2F3MeF-BztA-GlnR*3-Ala-NH2]	> 10	200 to 750
CC[C@H](C)[C@@H]1NC(=O)[C@H](CC(=O)O)NC(=O)C2(CCCC=CCCCOC(=O)N3CC[C@@]4(C3)NC(=O)[C@H](CCCCNC(=O)CC[C@@H](C(=O)N[C@@H](C)C(N)=O)NC(=O)[C@H](Cc3csc5ccccc35)NC(=O)[C@H](Cc3ccccc3C(F)(F)F)NC4=O)NC(=O)[C@H](Cc3ccccc3)NC(=O)[C@H](C)NC(=O)C(C)(C)NC1=O)CCCC=CC[C@]1(CCCN1C(C)=O)C(=O)N[C@@H](CC(=O)O)C(=O)N[C@@H](CC(C)(C)C)C(=O)N2 (relative stereo) [I-222, Ac-PL3-Asp-Npg-B5-Asp-Ile-Aib-Ala-Phe-Lys*3-PyrS2-2F3MeF-BztA-GlnR*3-Ala-NH2]	> 10	> 1000
CC(=O)N1CCC[C@]12CC=CCCCC1(CCCC=CCCCOC(=O)N3CC[C@@]4(C3)NC(=O)[C@H](CCCCNC(=O)CC[C@@H](C(=O)N[C@@H](CCCN3CCOCC3)C(N)=O)NC(=O)[C@H](Cc3csc5ccccc35)NC(=O)[C@H](Cc3ccccc3C(F)(F)F)NC4=O)NC(=O)[C@H](Cc3ccccc3)NC(=O)[C@H](C)NC(=O)C(C)(C)NC(=O)[C@H](Cc3cccc(C(=O)O)c3)NC(=O)[C@H](CC(=O)O)NC1=O)NC(=O)[C@H](CC(C)(C)C)NC(=O)[C@H](CC(=O)O)NC2=O (relative stereo) [I-231, Ac-PL3-Asp-Npg-B5-Asp-3COOHF-Aib-Ala-Phe-Lys*3-PyrS2-2F3MeF-BztA-GlnR*3-MorphNva-NH2]	> 10	< 50
CC(=O)N1CCC[C@]12CC=CCCCC1(CCCC=CCCCOC(=O)N3CC[C@@]4(C3)NC(=O)[C@H](CCCCNC(=O)CC[C@@H](C(=O)N[C@@H](CCCN3CCOCC3)C(=O)N[C@@H](CO)C(N)=O)NC(=O)[C@H](Cc3csc5ccccc35)NC(=O)[C@H](Cc3ccccc3C(F)(F)F)NC4=O)NC(=O)[C@H](Cc3ccccc3)NC(=O)[C@H](C)NC(=O)C(C)(C)NC(=O)[C@H](Cc3cccc(C(=O)O)c3)NC(=O)[C@H](CC(=O)O)NC1=O)NC(=O)[C@H](CC(C)(C)C)NC(=O)[C@H](CC(=O)O)NC2=O (relative stereo) [I-232, Ac-PL3-Asp-Npg-B5-Asp-3COOHF-Aib-Ala-Phe-Lys*3-PyrS2-2F3MeF-BztA-GlnR*3-MorphNva-Ser-NH2]	> 10	< 50
CCCC[C@@H]1NC(=O)[C@H](CC(=O)O)NC(=O)[C@]2(CC=CCCCC3(CCCC=CCCCOC(=O)N4CC[C@@]5(C4)NC(=O)[C@H](CCCCNC(=O)CC[C@@H](C(=O)N[C@@H](C)C(N)=O)NC(=O)[C@H](Cc4csc6ccccc46)NC(=O)[C@H](Cc4ccsc4)NC5=O)NC(=O)[C@H](Cc4ccccc4)NC(=O)[C@H](C)NC(=O)C(C)(C)NC(=O)[C@H](Cc4cccc(C(=O)O)c4)NC(=O)[C@H](CC(=O)O)NC3=O)NC1=O)CCCN2C(C)=O (relative stereo) [I-245, Ac-PL3-Asp-nLeu-B5-Asp-3COOHF-Aib-Ala-Phe-Lys*3-PyrS2-3Thi-BztA-GlnR*3-Ala-NH2]	1.5 to 3	< 50
CC(=O)N1CCC[C@]12CC=CCCCC1(CCCC=CCCCOC(=O)N3CC[C@@]4(C3)NC(=O)[C@H](CCCCNC(=O)CC[C@@H](C(=O)N[C@@H](C)C(N)=O)NC(=O)[C@H](Cc3csc5ccccc35)NC(=O)[C@H](Cc3ccsc3)NC4=O)NC(=O)[C@H](Cc3ccccc3)NC(=O)[C@H](C)NC(=O)C(C)(C)NC(=O)[C@H](Cc3cccc(C(=O)O)c3)NC(=O)[C@H](CC(=O)O)NC1=O)NC(=O)[C@H](CC(C)C)NC(=O)[C@H](CC(=O)O)NC2=O (relative stereo) [I-246, Ac-PL3-Asp-Leu-B5-Asp-3COOHF-Aib-Ala-Phe-Lys*3-PyrS2-3Thi-BztA-GlnR*3-Ala-NH2]	1.5 to 3	< 50
CC(=O)N1CCC[C@]12CC=CCCCC1(CCCC=CCCCOC(=O)N3CC[C@@]4(C3)NC(=O)[C@H](CCCCNC(=O)CC[C@@H](C(=O)N[C@@H](C)C(N)=O)NC(=O)[C@H](Cc3csc5ccccc35)NC(=O)[C@H](Cc3ccsc3)NC4=O)NC(=O)[C@H](Cc3ccccc3)NC(=O)[C@H](C)NC(=O)C(C)(C)NC(=O)[C@H](Cc3cccc(C(=O)O)c3)NC(=O)[C@H](CC(=O)O)NC1=O)NC(=O)[C@H](C(C)C)NC(=O)[C@H](CC(=O)O)NC2=O (relative stereo) [I-248, Ac-PL3-Asp-Val-B5-Asp-3COOHF-Aib-Ala-Phe-Lys*3-PyrS2-3Thi-BztA-GlnR*3-Ala-NH2]	1.5 to 3	< 50
CC(=O)N1CCC[C@]12CC=CCCCC1(CCCC=CCCCOC(=O)N3CC[C@@]4(C3)NC(=O)[C@H](CCCCNC(=O)CC[C@@H](C(=O)N[C@@H](C)C(N)=O)NC(=O)[C@H](Cc3csc5ccccc35)NC(=O)[C@H](Cc3ccsc3)NC4=O)NC(=O)[C@H](Cc3ccccc3)NC(=O)[C@H](C)NC(=O)C(C)(C)NC(=O)[C@H](Cc3cccc(C(=O)O)c3)NC(=O)[C@H](CC(=O)O)NC1=O)NC(=O)[C@H](Cc1ccccc1)NC(=O)[C@H](CC(=O)O)NC2=O (relative stereo) [I-249, Ac-PL3-Asp-Phe-B5-Asp-3COOHF-Aib-Ala-Phe-Lys*3-PyrS2-3Thi-BztA-GlnR*3-Ala-NH2]	3 to 10	< 50
CC(=O)N1CCC[C@]12CC=CCCCC1(CCCC=CCCCOC(=O)N3CC[C@@]4(C3)NC(=O)[C@H](CCCCNC(=O)CC[C@@H](C(=O)N[C@@H](C)C(N)=O)NC(=O)[C@H](Cc3csc5ccccc35)NC(=O)[C@H](Cc3ccsc3)NC4=O)NC(=O)[C@H](Cc3ccccc3)NC(=O)[C@H](C)NC(=O)C(C)(C)NC(=O)[C@H](Cc3cccc(C(=O)O)c3)NC(=O)[C@H](CC(=O)O)NC1=O)NC(=O)[C@H](CC1CCCCC1)NC(=O)[C@H](CC(=O)O)NC2=O (relative stereo) [I-250, Ac-PL3-Asp-Cha-B5-Asp-3COOHF-Aib-Ala-Phe-Lys*3-PyrS2-3Thi-BztA-GlnR*3-Ala-NH2]	3 to 10	< 50
CC(=O)N1CCC[C@]12CC=CCCCC1(CCCC=CCCCOC(=O)N3CC[C@@]4(C3)NC(=O)[C@H](CCCCNC(=O)CC[C@@H](C(=O)N[C@@H](C)C(N)=O)NC(=O)[C@H](Cc3csc5ccccc35)NC(=O)[C@H](Cc3ccsc3)NC4=O)NC(=O)[C@H](Cc3ccccc3)NC(=O)[C@H](C)NC(=O)C(C)(C)NC(=O)[C@H](Cc3cccc(C(=O)O)c3)NC(=O)[C@H](CC(=O)O)NC1=O)NC(=O)[C@H](CC1CCCC1)NC(=O)[C@H](CC(=O)O)NC2=O (relative stereo) [I-251, Ac-PL3-Asp-CypA-B5-Asp-3COOHF-Aib-Ala-Phe-Lys*3-PyrS2-3Thi-BztA-GlnR*3-Ala-NH2]	1.5 to 3	< 50
CC(=O)N1CCC[C@]12CC=CCCCC1(CCCC=CCCCOC(=O)N3CC[C@@]4(C3)NC(=O)[C@H](CCCCNC(=O)CC[C@@H](C(=O)N[C@@H](C)C(N)=O)NC(=O)[C@H](Cc3csc5ccccc35)NC(=O)[C@H](Cc3ccsc3)NC4=O)NC(=O)[C@H](Cc3ccccc3)NC(=O)[C@H](C)NC(=O)C(C)(C)NC(=O)[C@H](Cc3cccc(C(=O)O)c3)NC(=O)[C@H](CC(=O)O)NC1=O)NC(=O)C1(CCCC1)NC(=O)[C@H](CC(=O)O)NC2=O (relative stereo) [I-252, Ac-PL3-Asp-CyLeu-B5-Asp-3COOHF-Aib-Ala-Phe-Lys*3-PyrS2-3Thi-BztA-GlnR*3-Ala-NH2]	3 to 10	< 50
